From patent publication US20090186949A1, “Method for Treating Endothelial and Epithelial Cell Disorders by Administering High Molecular Weight PEG-Like Compounds” (THE UNIVERSITY OF CHICAGO, priority 2006, published 2009)

How the values were obtained:
[1] = test system: P. aeruginosa (strain PAO1) whole cells and membrane fractions; type: binding, Pseudomonas aeruginosa
[2] = test system: rhlI / C4-HSL in P. aeruginosa PAO1; test: Quorum sensing activation (rhlI mRNA, C4-HSL in supernatants); type: cell-based, Pseudomonas aeruginosa

Row | Substance | binding to P. aeruginosa cells / cell membranes (ELISA) [1] | rhlI transcription (Northern blot) [2]
1 | IL-2: human cytokine | No binding was observed | 
2 | TNF-α: human cytokine | No binding was observed | but not
